Results on 3 proteins are retold here after PMC10638397, “Engineering sulfonate group donor regeneration systems to boost biosynthesis of sulfated compounds” (Nature Communications, 2023).

Substrate in the data set: Nc1ncnc2c1ncn2[C@@H]1O[C@H](COP(=O)(O)OS(=O)(=O)O)[C@@H](O)[C@H]1O
The data set is described as follows: purified protein.

Read-outs that look alike come from different tables or passages of the source.

B1: estrogen sulfotransferase (EST) (Mus musculus) (protein)
chain: METSMPEYYEVFGEFRGVLMDKRFTKYWEDVEMFLARPDDLVIATYPKSGTTWISEVVYMIYKEGDVEKCKEDAIFNRIPYLECRNEDLINGIKQLKEKESPRIVKTHLPPKLLPASFWEKNCKMIYLCRNAKDVAVSYYYFLLMITSYPNPKSFSEFVEKFMQGQVPYGSWYDHVKAWWEKSKNSRVLFMFYEDMKEDIRREVVKLIEFLERKPSAELVDRIIQHTSFQEMKNNPSTNYTMMPEEMMNQKVSPFMRKGIIGDWKNHFPEALRERFDEHYKQQMKDCTVKFRMEL
As usually defined, the Km is the concentration of substrate that gives half-maximal velocity. The kcat/Km is the turnover number divided by the Michaelis constant. For the protein B1, where the note is “pH 7.5, 35.0 °C”, the Km turned out to be 2910 ± 520 µM and the kcat/Km was 2.44 M⁻¹ s⁻¹.

B2: trehalose sulfotransferase (Stf0) (Mycolicibacterium smegmatis MC2 155; R143C/W154N) (protein)
chain: MSDHPTAYLVLASQRSGSTLLVESLRATGVAGEPQEFFQYLPNTSMSPQPREWFADVEDQSILRLLDPLIEGKPDLAPATIWRDYIQTVGRTPNGVWGGKLMWNQTPLLVQRAKDLPDRSGSGLLSAIRDVVGSDPVLIHIHCPDVVSQAVSFNRAVQTRVWRGRPDPVRDARAEYHAGAIAHVITMLRAQEEGWRAWFTEENVEPIDVDYPYLWRNLTEVVGTVLEALGQDPRLAPKPVLERQADQRSDEWVERYRRDAQRDGLPL
As for B2, the Km was 1040 ± 170 µM.

B3: trehalose sulfotransferase (Stf0) (Mycolicibacterium smegmatis MC2 155) (protein)
chain: MSDHPTAYLVLASQRSGSTLLVESLRATGVAGEPQEFFQYLPNTSMSPQPREWFADVEDQSILRLLDPLIEGKPDLAPATIWRDYIQTVGRTPNGVWGGKLMWNQTPLLVQRAKDLPDRSGSGLLSAIRDVVGSDPVLIHIHRPDVVSQAVSFWRAVQTRVWRGRPDPVRDARAEYHAGAIAHVITMLRAQEEGWRAWFTEENVEPIDVDYPYLWRNLTEVVGTVLEALGQDPRLAPKPVLERQADQRSDEWVERYRRDAQRDGLPL
Turning to B3, where the note is “pH 7.5, 35.0 °C”, the Km was 1560 ± 260 µM and the kcat/Km amounted to 3.78 M⁻¹ s⁻¹.
